Earlier results, collected in US7622470B2, “Treatment of T-cell lymphoma using 10-propargyl-10-deazaaminopterin” (Sloan-Kettering Institute for Cancer Research, priority 2004, dated 2009).

Test system: E0771 murine mammary tumor
Conditions: highest dose used; 3 mice per dosage; cited from earlier work

Substance: 10-Propargyl-10-deazaaminopterin
- Toxicity to the mice: toxic to the mice
